# Experimental data taken from BindingDB's records for doi:10.1016/j.bmc.2003.11.015 (Bristol-Myers Squibb Pharmaceutical Research Institute, 2004).
# Amino acid sequences for entries named in this document (tags omitted).
# UniProt P61169, whole entry: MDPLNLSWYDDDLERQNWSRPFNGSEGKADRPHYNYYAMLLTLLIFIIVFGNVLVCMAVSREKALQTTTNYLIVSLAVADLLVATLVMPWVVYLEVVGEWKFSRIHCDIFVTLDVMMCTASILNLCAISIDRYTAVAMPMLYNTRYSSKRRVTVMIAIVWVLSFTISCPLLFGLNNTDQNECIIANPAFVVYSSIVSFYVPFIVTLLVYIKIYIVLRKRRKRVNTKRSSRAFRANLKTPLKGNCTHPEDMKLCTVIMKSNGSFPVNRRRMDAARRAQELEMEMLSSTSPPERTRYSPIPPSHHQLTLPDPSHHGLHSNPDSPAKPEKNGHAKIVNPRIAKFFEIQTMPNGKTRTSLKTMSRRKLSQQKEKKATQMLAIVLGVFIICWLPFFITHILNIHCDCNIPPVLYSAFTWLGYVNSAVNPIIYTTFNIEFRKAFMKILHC
# UniProt P18901, whole entry: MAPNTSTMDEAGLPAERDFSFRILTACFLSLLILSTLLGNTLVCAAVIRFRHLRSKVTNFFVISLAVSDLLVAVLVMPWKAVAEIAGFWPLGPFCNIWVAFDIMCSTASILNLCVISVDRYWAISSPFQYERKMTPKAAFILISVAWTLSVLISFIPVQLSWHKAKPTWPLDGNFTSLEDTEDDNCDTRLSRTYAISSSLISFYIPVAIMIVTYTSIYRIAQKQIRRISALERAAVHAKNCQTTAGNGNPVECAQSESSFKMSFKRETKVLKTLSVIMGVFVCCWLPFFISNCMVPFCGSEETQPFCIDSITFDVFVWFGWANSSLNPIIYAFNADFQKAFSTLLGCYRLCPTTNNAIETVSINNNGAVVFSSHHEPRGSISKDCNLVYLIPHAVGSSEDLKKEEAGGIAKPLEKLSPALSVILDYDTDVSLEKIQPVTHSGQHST
# Legend:
# D(2) dopamine receptor = D(2) dopamine receptor (Rattus norvegicus, UniProt P61169)
# D(1A) dopamine receptor = D(1A) dopamine receptor (Rattus norvegicus, UniProt P18901)
Ki (D(2) dopamine receptor) [µM],Ki (D(1A) dopamine receptor) [µM],SMILES
1.5,5.3,Oc1ccc2c(c1O)Cc1cccc3c1[C@@H]2CNC3
0.056,0.067,"Oc1ccc2c(c1O)Cc1cccc3c1C2CNC3 (stereo not drawn) [Dinapsoline, (+/-)]"
0.038,0.033,"Oc1ccc2c(c1O)Cc1cccc3c1[C@H]2CNC3 [Dinapsoline, (R)(+)]"
